Measurements published in patent US5919901A (priority 1996, dated 1999).

Key:
Adult male Wistar rats = assay: In vivo feeding after ICV injection, rodent chow consumed in 2 hours; design: species or system rat; settings: for Feeding (g/2 h): rats, ICV, 1-6 nmoles peptide, chow consumed in 2 hours, saline <3 g/2 hours
Y5 receptor (Y861 clone) = molecular target: T1, Y5 receptor (Y861 clone) (Rattus norvegicus, UniProt Q63634); assay: [125I]PYY competition binding, clone Y861 membranes from transiently transfected COS-7 cells
T1 construct: expressed in transfected cells; host or cells: COS-7 (transient, pcDNA3 library clone)
T1 sequence (Q63634 1-445): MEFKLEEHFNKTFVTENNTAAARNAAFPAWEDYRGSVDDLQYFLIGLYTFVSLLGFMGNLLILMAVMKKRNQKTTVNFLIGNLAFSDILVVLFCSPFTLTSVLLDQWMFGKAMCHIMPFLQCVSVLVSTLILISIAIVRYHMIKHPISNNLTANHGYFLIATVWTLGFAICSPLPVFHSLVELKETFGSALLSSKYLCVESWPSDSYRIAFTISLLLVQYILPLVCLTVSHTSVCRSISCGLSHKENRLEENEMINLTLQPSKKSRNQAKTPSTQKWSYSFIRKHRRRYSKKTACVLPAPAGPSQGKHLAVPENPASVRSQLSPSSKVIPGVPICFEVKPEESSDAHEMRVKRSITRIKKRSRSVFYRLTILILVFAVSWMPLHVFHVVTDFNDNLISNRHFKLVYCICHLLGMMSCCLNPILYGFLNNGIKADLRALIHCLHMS
Experimental: The media was removed from each flask of transfected cells, and the cells were washed twice with 20 ml ice-cold phosphate buffered saline.
(West Haven, Conn.). All other peptides were purchased from either Peninsula (Belmont, Calif.) or Bachem (Torrance, Calif.).

SMILES | Feeding (g/2 h) (Adult male Wistar rats) | affinity for the Y5 receptor (Y5 receptor (Y861 clone)) | feeding response in rats (Adult male Wistar rats; administered ICV to rats)
CC[C@H](C)[C@H](NC(=O)[C@H](Cc1ccc(O)cc1)NC(=O)[C@H](Cc1c[nH]cn1)NC(=O)[C@H](CCCNC(=N)N)NC(=O)[C@H](CC(C)C)NC(=O)[C@H](C)NC(=O)[C@H](CO)NC(=O)[C@H](Cc1ccc(O)cc1)NC(=O)[C@H](Cc1ccc(O)cc1)NC(=O)[C@H](CCCNC(=N)N)NC(=O)[C@H](C)N)C(=O)N[C@@H](CC(N)=O)C(=O)N[C@@H](CC(C)C)C(=O)N[C@H](C(=O)N[C@H](C(=O)N[C@@H](CCCNC(=N)N)C(=O)N[C@@H](CCC(N)=O)C(=O)N[C@@H](CCCNC(=N)N)C(=O)N[C@@H](Cc1ccc(O)cc1)C(N)=O)[C@@H](C)O)[C@@H](C)CC [p(18-36)NPY, (18-36)NPY] | < 3 | – | –
CC[C@H](C)[C@H](NC(=O)[C@H](Cc1ccc(O)cc1)NC(=O)[C@H](Cc1c[nH]cn1)NC(=O)[C@H](CCCNC(=N)N)NC(=O)[C@H](CC(C)C)NC(=O)[C@H](C)NC(=O)[C@H](CO)NC(=O)[C@H](Cc1ccc(O)cc1)NC(=O)[C@@H](N)Cc1ccc(O)cc1)C(=O)N[C@@H](CC(N)=O)C(=O)N[C@@H](CC(C)C)C(=O)N[C@H](C(=O)N[C@H](C(=O)N[C@@H](CCCNC(=N)N)C(=O)N[C@@H](CCC(N)=O)C(=O)N[C@@H](CCCNC(=N)N)C(=O)N[C@@H](Cc1ccc(O)cc1)C(N)=O)[C@@H](C)O)[C@@H](C)CC [r/h(20-36)NPY, (20-36)NPY] | < 3 | lower affinity | do not elecit feeding
